Assay results as given in ChEMBL document CHEMBL1124484, “Effects of 8-phenyl and 8-cycloalkyl substituents on the activity of mono-, di-, and trisubstituted alkylxanthines with substitution at the 1-, 3-, and 7-positions” (J Med Chem, 1989).

Chains of the proteins cited; added tags and fusions are not shown.
UniProt P25099, whole entry: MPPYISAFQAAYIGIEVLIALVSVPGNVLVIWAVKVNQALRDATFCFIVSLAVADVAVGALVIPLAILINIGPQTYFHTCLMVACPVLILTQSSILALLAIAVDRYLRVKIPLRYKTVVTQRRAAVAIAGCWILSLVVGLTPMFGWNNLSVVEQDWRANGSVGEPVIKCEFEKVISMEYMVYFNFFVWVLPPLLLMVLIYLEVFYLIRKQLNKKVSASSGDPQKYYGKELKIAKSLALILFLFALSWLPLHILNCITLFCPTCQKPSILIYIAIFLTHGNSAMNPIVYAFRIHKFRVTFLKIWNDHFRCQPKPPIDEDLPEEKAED

Target: Adenosine receptor A1 (Rattus norvegicus, UniProt P25099)
Assay: Inhibition of 1 nM [3H]- N6-(phenylisopropyl) adenosine binding to Adenosine A1 receptor in rat cerebral cortical membranes
Type: cell membranes, Membrane

## CCCn1c(=O)c2[nH]c(-c3ccccc3)nc2n(CCC)c1=O
  Ki: 10 nM
